# Measurements reported in PubChem BioAssay AID1347074 (Center for Chemical Genomics, University of Michigan, 2019).
# Protein sequences, listed by entry. Tags and fused reporters are not part of them. Lines headed by an entry give the natural chain unless they say otherwise; changes in a name come on top.
# UniProt Q9UPY3: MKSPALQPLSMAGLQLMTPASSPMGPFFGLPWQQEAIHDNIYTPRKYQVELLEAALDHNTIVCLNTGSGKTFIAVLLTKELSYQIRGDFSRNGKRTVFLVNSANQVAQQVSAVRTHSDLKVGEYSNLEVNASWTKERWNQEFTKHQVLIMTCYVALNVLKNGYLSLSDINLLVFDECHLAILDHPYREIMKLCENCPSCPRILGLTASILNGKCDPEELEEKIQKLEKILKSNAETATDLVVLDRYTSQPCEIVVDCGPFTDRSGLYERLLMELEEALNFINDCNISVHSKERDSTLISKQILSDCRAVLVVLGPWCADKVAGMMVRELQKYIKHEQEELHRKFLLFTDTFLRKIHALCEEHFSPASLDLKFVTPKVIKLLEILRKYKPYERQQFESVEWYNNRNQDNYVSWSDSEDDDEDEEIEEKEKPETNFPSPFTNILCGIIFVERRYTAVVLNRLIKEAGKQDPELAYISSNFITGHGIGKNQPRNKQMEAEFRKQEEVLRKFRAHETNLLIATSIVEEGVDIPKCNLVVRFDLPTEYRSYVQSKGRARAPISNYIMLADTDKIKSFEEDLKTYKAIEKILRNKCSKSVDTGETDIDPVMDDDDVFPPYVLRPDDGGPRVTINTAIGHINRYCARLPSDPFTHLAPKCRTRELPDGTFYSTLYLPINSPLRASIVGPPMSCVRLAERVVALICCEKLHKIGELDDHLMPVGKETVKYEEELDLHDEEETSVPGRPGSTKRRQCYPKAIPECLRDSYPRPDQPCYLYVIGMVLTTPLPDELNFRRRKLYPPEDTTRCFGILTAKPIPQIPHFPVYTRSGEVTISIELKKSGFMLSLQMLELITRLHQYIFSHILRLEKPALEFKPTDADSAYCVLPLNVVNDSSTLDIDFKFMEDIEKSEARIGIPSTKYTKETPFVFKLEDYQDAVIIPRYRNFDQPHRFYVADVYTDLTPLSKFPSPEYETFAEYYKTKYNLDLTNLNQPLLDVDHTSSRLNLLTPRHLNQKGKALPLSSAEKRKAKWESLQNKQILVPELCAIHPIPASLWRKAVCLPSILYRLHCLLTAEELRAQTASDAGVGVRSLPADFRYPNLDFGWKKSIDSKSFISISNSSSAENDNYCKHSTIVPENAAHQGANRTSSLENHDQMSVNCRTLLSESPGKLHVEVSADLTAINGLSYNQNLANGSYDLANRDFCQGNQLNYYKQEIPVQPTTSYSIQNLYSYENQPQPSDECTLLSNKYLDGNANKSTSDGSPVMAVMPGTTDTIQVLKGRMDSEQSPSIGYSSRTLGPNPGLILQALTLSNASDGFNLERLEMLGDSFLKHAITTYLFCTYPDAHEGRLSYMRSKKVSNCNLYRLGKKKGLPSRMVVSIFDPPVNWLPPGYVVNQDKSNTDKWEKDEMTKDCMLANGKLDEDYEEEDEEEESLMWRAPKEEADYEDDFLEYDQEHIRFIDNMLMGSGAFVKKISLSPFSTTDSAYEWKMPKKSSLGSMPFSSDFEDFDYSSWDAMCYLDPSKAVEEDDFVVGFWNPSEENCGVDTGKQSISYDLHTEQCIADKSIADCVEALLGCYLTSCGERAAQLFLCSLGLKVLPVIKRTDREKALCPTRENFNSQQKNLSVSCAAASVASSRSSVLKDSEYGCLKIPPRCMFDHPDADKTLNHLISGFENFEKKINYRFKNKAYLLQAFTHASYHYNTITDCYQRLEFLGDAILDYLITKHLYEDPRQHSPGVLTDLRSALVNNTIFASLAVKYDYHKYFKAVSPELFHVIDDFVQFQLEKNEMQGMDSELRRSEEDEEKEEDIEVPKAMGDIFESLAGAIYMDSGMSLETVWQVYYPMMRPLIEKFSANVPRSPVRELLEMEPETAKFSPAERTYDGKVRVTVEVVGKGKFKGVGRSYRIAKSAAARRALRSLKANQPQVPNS
# Where “and” joins values, the source holds several entries; their conditions need not be identical. Equal values may be shown once. The entries are a selection whose mix differs from that of the whole data set. Calls of active or inactive are those of the source. Rule as the data show it: active = z-score above about 3 (passing the limit was not always enough); inactive = the rest.
# Target: Endoribonuclease Dicer (Homo sapiens) (UniProt Q9UPY3)
# Assay: inhibitors of Dicer pre-microRNA processing, primary screen, biochemical, cat-ELCCA, chemiluminescence (AID 1347074);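 also: plate controls were vehicle for no effect and no enzyme for full effect; higher signal means more uncleaved substrate so more Dicer inhibition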
# Conditions: cat-ELCCA pre-miR-21 Dicer processing, at 25 µM, hits give high values
row,Structure (SMILES),z-score
1,CN(C(=O)Cc1ccc(Cl)c(Cl)c1)[C@@H]1CCCC[C@@H]1N1CCCC1,inactive: 0.69
2,O=C(OC1CN2CCC1CC2)c1ccccc1 (stereo not drawn),inactive: -0.17
3,CN(C)C(=O)Oc1noc2ccccc12,inactive: 0.33
4,O=C(CCc1ccccc1)OC1CN2CCC1CC2 (stereo not drawn),inactive: 2.51
5,CN(C(=O)Cc1ccc(Cl)c(Cl)c1)[C@H]1CCCC[C@@H]1N1CCCC1,inactive: -2.91 and inactive: 0.07
6,O=C(COc1ccc(F)cc1)OC1CN2CCC1CC2 (stereo not drawn),inactive: -0.63
7,O=C(OC1CN2CCC1CC2)c1cccc([N+](=O)[O-])c1 (stereo not drawn),inactive: 1.76
8,O=C(COc1ccccc1)OC1CN2CCC1CC2 (stereo not drawn),inactive: 0.37
9,BrC1CSc2nc3ccccc3n2C1c1ccccc1 (stereo not drawn),inactive: -1.07
10,NC(=O)Nc1ccc([As](=O)(O)O)cc1,inactive: 0.28
11,CN(C(=O)Cc1ccccc1)[C@@H]1CC[C@]2(CCCO2)C[C@H]1N1CCCC1,inactive: -1.02
12,CN(C(=O)Cc1ccc(Cl)c(Cl)c1)[C@@H]1CC[C@]2(CCCO2)C[C@H]1N1CCCC1,inactive: -0.48
13,O=C(OC1CN2CCC1CC2)c1ccc(Cl)cc1 (stereo not drawn),inactive: 0.39
